# In BindingDB's records for doi:10.1021/acs.jmedchem.1c01264 (Symeres, 2021):
# Amino acid sequences for entries named in this document (tags omitted). A change or cut given only in a name is not applied to a line headed by its entry.
# UniProt Q12809: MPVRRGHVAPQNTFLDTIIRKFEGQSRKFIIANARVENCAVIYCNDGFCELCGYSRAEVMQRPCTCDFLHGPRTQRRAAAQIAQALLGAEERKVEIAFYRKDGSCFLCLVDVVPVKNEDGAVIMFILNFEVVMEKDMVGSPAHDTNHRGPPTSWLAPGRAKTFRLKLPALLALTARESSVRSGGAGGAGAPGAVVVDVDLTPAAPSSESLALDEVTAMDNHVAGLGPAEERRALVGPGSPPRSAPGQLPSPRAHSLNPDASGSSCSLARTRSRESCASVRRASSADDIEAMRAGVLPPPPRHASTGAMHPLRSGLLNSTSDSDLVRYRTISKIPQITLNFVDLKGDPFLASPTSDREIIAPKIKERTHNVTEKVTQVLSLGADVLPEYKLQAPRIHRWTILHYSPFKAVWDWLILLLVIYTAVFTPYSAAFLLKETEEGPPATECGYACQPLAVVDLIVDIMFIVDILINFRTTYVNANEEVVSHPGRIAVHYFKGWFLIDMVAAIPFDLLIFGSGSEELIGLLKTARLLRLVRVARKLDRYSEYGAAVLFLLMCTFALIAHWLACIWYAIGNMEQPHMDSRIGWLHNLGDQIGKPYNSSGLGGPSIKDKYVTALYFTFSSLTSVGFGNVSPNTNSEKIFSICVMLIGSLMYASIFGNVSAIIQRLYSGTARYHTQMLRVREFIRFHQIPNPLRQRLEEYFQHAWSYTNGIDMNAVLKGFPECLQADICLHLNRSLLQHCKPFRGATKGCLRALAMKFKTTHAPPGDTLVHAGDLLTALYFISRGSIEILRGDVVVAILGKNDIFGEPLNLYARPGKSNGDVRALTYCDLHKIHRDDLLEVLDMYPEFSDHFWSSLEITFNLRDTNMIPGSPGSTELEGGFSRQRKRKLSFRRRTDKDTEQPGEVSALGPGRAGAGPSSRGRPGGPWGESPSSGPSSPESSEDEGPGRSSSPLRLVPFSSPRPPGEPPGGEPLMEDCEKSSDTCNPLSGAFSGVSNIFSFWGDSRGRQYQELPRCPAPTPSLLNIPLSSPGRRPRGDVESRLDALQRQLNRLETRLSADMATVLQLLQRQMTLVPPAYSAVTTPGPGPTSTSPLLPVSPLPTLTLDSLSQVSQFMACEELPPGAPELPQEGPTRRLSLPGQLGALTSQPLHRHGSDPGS
# Biological target: Potassium voltage-gated channel subfamily H member 2 (Homo sapiens, UniProt Q12809)
structure (smiles),measurement,value
CCOc1ccc(-c2nnc([C@H]3C[C@H](NC(=O)c4ccccn4)C3)n2-c2ccccc2F)nc1,IC50,> 25 µM
